{"source": "patent US10669242B2", "about": "(priority 2016, dated 2020)", "test_system": "C. difficile strain 630", "format": "in vivo, Golden Syrian hamsters", "conditions": "PO twice per day; Example 5ae 50 mg/kg 7 days; vancomycin 5 mg/kg 5 days", "data": [{"compound": "O=C(Nc1ccc(C(F)(F)F)cn1)c1ccc(CN2C(=O)c3ccc(Cl)cc3NC(=O)[C@H]2Cc2ccccn2)cc1Cl", "note": "[Example 5ae, (R)-2-Chloro-4-((8-chloro-2,5-dioxo-3-(pyridin-2-ylmethyl)-2,3-dihydro-1H-benzo[e][1,4]diazepin-4(5H)-yl)methyl)-N-(5-(trifluoromethyl)pyridin-2-yl)benzamide]", "values": [{"measurement": "body weight loss", "result": "only exhibited a slight reduction in weight loss"}]}]}
